The values that follow are results of earlier work, collected in PMC3623542.

Chains of the proteins cited; added tags and fusions are not shown. Residues count along the entry.
UniProt P0A6Y8, 2-638: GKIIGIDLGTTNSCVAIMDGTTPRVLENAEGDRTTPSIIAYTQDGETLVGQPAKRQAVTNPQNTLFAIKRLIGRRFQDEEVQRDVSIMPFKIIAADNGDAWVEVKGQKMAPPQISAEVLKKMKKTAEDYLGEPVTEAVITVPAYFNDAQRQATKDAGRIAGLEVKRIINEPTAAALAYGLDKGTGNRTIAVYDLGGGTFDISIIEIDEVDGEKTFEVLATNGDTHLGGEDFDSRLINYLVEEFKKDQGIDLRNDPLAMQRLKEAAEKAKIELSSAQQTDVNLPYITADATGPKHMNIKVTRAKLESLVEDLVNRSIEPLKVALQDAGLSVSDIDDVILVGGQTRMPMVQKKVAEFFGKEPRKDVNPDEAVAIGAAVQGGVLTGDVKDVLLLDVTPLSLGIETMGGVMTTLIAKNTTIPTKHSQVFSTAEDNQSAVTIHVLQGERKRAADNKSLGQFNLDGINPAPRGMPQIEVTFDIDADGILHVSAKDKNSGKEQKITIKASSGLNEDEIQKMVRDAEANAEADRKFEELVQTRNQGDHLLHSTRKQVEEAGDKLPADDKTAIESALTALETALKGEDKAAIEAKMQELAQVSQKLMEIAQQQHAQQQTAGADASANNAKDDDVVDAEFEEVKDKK

In general, pKd refers to −log10 of the Kd, conventionally taken in molar units.

pKd: −log10 of the molar value.

The target of this data set is NRLLLTG peptide.

Take DnaK (from UniProt P0A6Y8): the pKd is 5.30.
